Results published in PMC5508335 (Journal of Veterinary Internal Medicine, 2017).

Tested on: thyroid TT4 response
Experiment: TSH stimulation test, serum TT4
Format: in vivo, dog
[1] = dogs administered hydrocortisone

Substance: rhTSH: thyrotropin (TSH) used for the stimulation test
- mean post-rhTSH TT4 concentration [1]: 2.17 µg/dL
- time of peak post-rhTSH TT4 concentration [1]: 4 h
- mean post-rhTSH TT4 concentration (dogs with NTI): 2.19 µg/dL
- time of peak post-rhTSH TT4 concentration (dogs with NTI and dogs without hypothyroidism): 6 h
- post-rhTSH TT4 concentration (dogs with hypothyroidism): < 1.0 µg/dL
- mean post-rhTSH TT4 concentration (dogs without hypothyroidism): 3.49 µg/dL
